In patent publication US9796777B2, “Methods of treating malignant tumors” (Canimguide Therapeutics AB, priority 2007, dated 2017):

Tested on: PBMCs
Assay: PHA-induced proliferation of PBMC in the presence of albumin peptides and/or dHSA
Format: cell-based, human
From the text: Venous blood was drawn from healthy volunteers or from cancer patients in glass vacuum tubes with acid dextrose citrate solution A as anti-coagulant (Vacutainer, Becton Dickinson, Franklin Lakes, N.J.). Erythrocytes were removed by sedimentation on 2% dextran T500 solution (Amersham Pharmacia Biotech AB, Uppsala, Sweden) in 0.9% NaCl (this step was omitted for cultures with PHA-stimulation-see below). […] For cell cultures with PHA-stimulation, PBMC were washed in Hank's Balanced Salt Solution (HBSS) with 10% autologous plasma instead of RPMI/2% HSA. Cell viability was assessed by exclusion of 0.05% Trypan Blue and was always above 95%. The cell suspension was stained with Turk's solution and the number of lymphocytes and monocytes in the PBMC preparation were counted in a hemocytometer. PBMCs were suspended in RPMI/2% HSA and the cell concentration adjusted to 5×10^5 lymphocytes/ml.
PBMC from healthy volunteers, were resuspended in RPMI1640 with or without the addition of dHSA and/or albumin peptides, as indicated, at a cell concentration of 5×10^5 lymphocytes/ml. 100 μl of the cell suspension were seeded into round-bottomed microtiter plates (Corning, N.Y., USA) followed by 100 μl of culture medium consisting of RPMI 1640 (Flow Laboratories, Irvine, Scotland) supplemented with 200 IU/ml Penicillin, 200 μg/ml Streptomycin (Flow laboratories) and 20% heat inactivated autologous serum. Phytohemagglutinin (PHA-P, Sigma Chemical Co, St. Louis, Mo.) at a final concentration of 5 or 10 μg/ml was then added.
All culture conditions were set up in triplicate wells. […] Mean values of disintegrations per minute (dpm) of triplicates were used for the calculations.

## dHSA: Human serum albumin denatured with urea, reduced with dithiothretiol and alkylated with iodoacetamide
dHSA 8 μg/ml, 5 controls and 4 cancer patients
  effect of dHSA on PHA induced proliferation of PBMCs: frequently resulted in stimulation of the proliferative rate
dHSA 8 μg/ml, two healthy controls
  effect of dHSA on PHA induced proliferation of PBMCs: significantly increased the proliferative rate
Patient P41, especially at PHA 10 μg/ml
  effect of dHSA on PHA induced proliferation of PBMCs: inhibited proliferation
